{"source": "patent US20060217291A1", "about": "“Radiosensitizer” (priority 2005, published 2006)", "key": {"Ascites hepatoma LY80 [1]": {"tested_on": "Ascites hepatoma LY80", "test": "Tumor weight (growth delay) in rats implanted with LY80 tumor, with or without 20 Gy X-rays (Experimental Example 1)", "type": "in vivo, Donryu rat", "settings": "administration + 20 Gy X-rays; Tukey-Kramer test", "procedure": "Method: Tumor cells (Ascites hepatoma LY80) that had been subcultured in the abdominal cavity of a Donryu rat were implanted subfascially at the right thigh of the same strain rat in an amount of about 1.0×10^6 cells. Six days after the tumor implantation, (1)5% (w/v %, hereinafter abbreviated as %) rHSA solution, (2) rHSA-FecycP solution, (3)a solution of saccharated ferric oxide, or (4)a solution of chondroitin sulfate/iron colloid was administered to the common iliac artery of the rats at a concentration of 10 mL/kg (6 rats per group for (1) to (3), and 3 rats per group for (4)). Note that the solution of rHSA-FecycP, the solution of saccharated ferric oxide, and the solution of chondroitin sulfate/iron colloid each were prepared to have a concentration of 3 mM as iron. After the administration, 20 Gy of X-rays were immediately irradiated to each tumor-implanted site. Meanwhile, for comparison, a non-treatment group and an rHSA-FecycP administration group both to which X-rays were not irradiated were provided (6 rats per group). […]\nMeanwhile, the major axes and minor axes of each tumor were measured on 6, 7, 9, 12, 15, 20, 25, 32, 39, 46, 53, and 60 days after the tumor implantation, and the tumor weights were calculated according to the following equation. […]"}, "Ascites hepatoma LY80 [2]": {"tested_on": "Ascites hepatoma LY80", "test": "Survival time of rats implanted with LY80 tumor, with or without 20 Gy X-rays (Experimental Example 1)", "type": "in vivo, Donryu rat", "settings": "administration + 20 Gy X-rays; 10 mL/kg into common iliac artery, 6 days after implantation; logrank test", "procedure": "Method: Tumor cells (Ascites hepatoma LY80) that had been subcultured in the abdominal cavity of a Donryu rat were implanted subfascially at the right thigh of the same strain rat in an amount of about 1.0×10^6 cells. Six days after the tumor implantation, (1)5% (w/v %, hereinafter abbreviated as %) rHSA solution, (2) rHSA-FecycP solution, (3)a solution of saccharated ferric oxide, or (4)a solution of chondroitin sulfate/iron colloid was administered to the common iliac artery of the rats at a concentration of 10 mL/kg (6 rats per group for (1) to (3), and 3 rats per group for (4)). Note that the solution of rHSA-FecycP, the solution of saccharated ferric oxide, and the solution of chondroitin sulfate/iron colloid each were prepared to have a concentration of 3 mM as iron. After the administration, 20 Gy of X-rays were immediately irradiated to each tumor-implanted site. Meanwhile, for comparison, a non-treatment group and an rHSA-FecycP administration group both to which X-rays were not irradiated were provided (6 rats per group).\nThe day of the tumor implantation was defined as day 0, and the life and death were observed up to 60 days after the implantation. The survival time of each group is shown by a box-and-whisker plot, and the logrank test (significance level of 5%) was performed as a significance test. […]"}}}
{"substance": "rHSA: recombinant human serum albumin (25% preparation, produced by Bipha Co., Ltd.), used as 5% control solution", "values": [{"measurement": "tumor weight compared to the irradiation groups", "setting": "Ascites hepatoma LY80 [1]", "result": "no difference"}, {"measurement": "survival time compared to the irradiation group", "setting": "Ascites hepatoma LY80 [2]", "result": "not extended"}]}
